The assay deals with estrogen synthesis. Description: in vivo inhibition of aromatase activity: inhibition of estrogen synthesis in rats (ovarian estrogen content). Particulars: Rattus norvegicus, po, read-out: dose at which estrogen synthesis is inhibited.

For `N#Cc1ccc(C(c2ccc(C#N)cc2)n2ccnc2)cc1` [Example 2a, 4-[alpha-(4-cyanophenyl)-1-imidazolylmethyl]-benzonitrile], the minimal effective dose is approximately 1.5 µg/kg.

Source of the values: patent publication US5112845A, “Alpha-heterocycle substituted tolunitriles” (Ciba-Geigy Corporation, priority 1990, dated 1992).
